A short description of data set [1]: Drug uptake in HT1080 cells xenografted mouse assessed as large intestine to muscle ratio after 90 mins in presence of non-radioactive ML5. Format: ADME, cell-based, HT-1080. The note with it: in vivo, 1.5 h.
Data set [2] in a line: Drug uptake in HT1080 cells xenografted mouse assessed as bone to muscle ratio after 90 mins. Format: ADME, cell-based, HT-1080. To be noted: in vivo, 1.5 h.
Data set [3] in a line: Drug uptake in HT1080 cells xenografted mouse assessed as lung to muscle ratio after 90 mins in presence of non-radioactive ML5. Format: ADME, cell-based, HT-1080. The note with it: in vivo, 1.5 h.
A short description of data set [4]: Drug uptake in HT1080 cells xenografted mouse assessed as tumor to muscle ratio after 90 mins. Format: ADME, cell-based, HT-1080. To be noted: in vivo, 1.5 h.
The nature of data set [5]: Drug uptake in HT1080 cells xenografted mouse assessed as lung to muscle ratio after 90 mins. The note with it: in vivo, 1.5 h. Format: ADME, cell-based, HT-1080.
For the next data set, the system named is Plasma (Homo sapiens). Put plainly: Metabolic stability in human plasma assessed as radioactivity at 3 hrs.
Data set [6] is described as follows: Drug uptake in HT1080 cells xenografted mouse assessed as heart to muscle ratio after 90 mins in presence of non-radioactive ML5. Format: ADME, cell-based, HT-1080. To be noted: in vivo, 1.5 h.
Data set [7] in a line: Drug uptake in HT1080 cells xenografted mouse assessed as tumor to muscle ratio after 90 mins in presence of non-radioactive ML5. Format: ADME, cell-based, HT-1080. To be noted: in vivo, 1.5 h.
In the next data set the test system is Intestine. Put plainly: Drug uptake in HT1080 cells xenografted mouse assessed as large intestine to muscle ratio after 90 mins. Format: ADME, cell-based, HT-1080. The note with it: in vivo, 1.5 h.
Data set [8] is described as follows: Drug uptake in HT1080 cells xenografted mouse assessed as bone to muscle ratio after 90 mins in presence of non-radioactive ML5. The note with it: in vivo, 1.5 h. Format: ADME, cell-based, HT-1080.
A short description of data set [9]: Drug uptake in HT1080 cells xenografted mouse assessed as heart to muscle ratio after 90 mins. Format: ADME, cell-based, HT-1080. To be noted: in vivo, 1.5 h.

Regarding `CC(C)C[C@H](CC(=O)NO)C(=O)N[C@@H](Cc1ccccc1)C(=O)N[C@@H](CCCCNC(=O)c1ccc([18F])cc1)C(N)=O`, the Ratio in data set [1] stood at 81.219; in data set [2] it was 0.769; in data set [3], 2.897; in data set [4] it was 3.035; in data set [5] it was 4.616; in data set [6], 1.178. Also, the Ratio in [7] worked out at 1.084; in the data set on Intestine, 33.065; in data set [8], 0.478; in data set [9] it was 2.069. Also, the Stability in the data set on Plasma (Homo sapiens) was found to be 99%.
